Consider one molecule from patent publication US10874669B2 (WAYNE STATE UNIVERSITY, priority 2018, dated 2020).

Sequences of proteins named here, by UniProt entry; tags and fusion partners are left off. A change or cut given only in a name is not applied to a line headed by its entry.
UniProt P61169, whole entry: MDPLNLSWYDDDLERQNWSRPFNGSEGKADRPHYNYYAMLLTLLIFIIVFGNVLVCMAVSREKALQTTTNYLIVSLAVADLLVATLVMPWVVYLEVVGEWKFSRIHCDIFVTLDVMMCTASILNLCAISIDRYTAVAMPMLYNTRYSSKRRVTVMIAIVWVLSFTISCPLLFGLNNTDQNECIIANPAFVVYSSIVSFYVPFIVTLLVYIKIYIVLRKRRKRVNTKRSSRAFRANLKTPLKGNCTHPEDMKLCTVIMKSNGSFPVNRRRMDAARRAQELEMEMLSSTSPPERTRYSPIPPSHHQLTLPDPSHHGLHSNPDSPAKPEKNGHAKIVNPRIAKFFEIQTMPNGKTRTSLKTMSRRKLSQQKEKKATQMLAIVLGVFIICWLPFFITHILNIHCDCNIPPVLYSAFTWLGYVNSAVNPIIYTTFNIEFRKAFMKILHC

The target of this test is cloned D2L receptors (Rattus norvegicus (Rat), UniProt P61169). As to the kind of experiment: [3H]spiperone displacement, cloned D2L receptors in HEK cells. The test is classed as binding. To be noted: means±SEM for 3 experiments. The text has this: The following table provides inhibition constants for displacing [3H]spiperone binding to the cloned D2L and D3 receptors expressed in HEK cells. […] NR=Not repeated.

Each structure is given as a SMILES string.

In turn, `CCCN(CCCC1(O)C=CC(O)=CC1)C1CCc2nc(N)sc2C1` (stereo not shown) [Compound 54, 4-(3-((2-Amino-4,5,6,7-tetrahydrobenzo[d]thiazol-6-yl)(propyl)amino)propyl)-benzene-1,4-diol] returned an inhibition constant Ki of 499 ± 16 nM.

As usually defined, the Ki is the dissociation constant of the complex between target and ligand, obtained from inhibition or displacement.
